Earlier results on two compounds are cited in paper PMC6273584, “Synthesis of Thiazolo[5,4-f]quinazolin-9(8H)-ones as Multi-Target Directed Ligands of Ser/Thr Kinases” (Molecules, 2016).

One data set deals with CDK1. Details: method as in PMID 17981370, PMID 16644220. As to conditions: Figure 2; earlier work; cited from earlier work.
The next data set relates to GSK-3. The conditions noted are these: Figure 2, earlier work, cited from earlier work.

One may read the IC50 as the point on the concentration scale where inhibition reaches its midpoint. As for `CC(C)n1cnc2ccc3nc(C(=N)OCc4ccccc4)sc3c2c1=O` [I], in the data set on CDK1, the “CDK1 IC50” value is recorded as “micromolar range” and the IC50 is 150 nM.

Regarding `CCn1cnc2ccc3nc(C(=N)OCc4ccccc4)sc3c2c1=O` [II], the “GSK-3 IC50” value with GSK-3 is reported as “micromolar range”. The IC50 in the data set on GSK-3 (read-out: GSK-3 IC50) was 170 nM.
